In patent US9850282B2, “Stable pentadecapeptide salts, a process for preparation thereof, a use thereof in the manufacture of pharmaceutical preparations and a use thereof in therapy” (priority 2013, dated 2017):

Assay: Stability in water solutions (1 g/100 ml) at 50° C.
Assay type: physicochemical
Settings: for pH: aqueous salt solution 1 g/100 ml
Method: This addition will be in the range from 0.5 mg to 3.0 mg per 1 mg of bepecin. […] The stability of bepecin salt with L-arginine in water solutions was determined after incubation of aqueous salt solutions in concentration 1 g/100 ml, at 50° C., and in a separate test in very stringent conditions: at 100° C., where the decomposition was determined after one hour.

Q: For Bepecin L-Lysine Salt (1:3) [Lys-BPC], which pH is on record?
A: 7.28

Q: For “Bepecin L-Ornithine Salt (1:2) [Orn-BPC]”, which “Pentadecapeptide content decrement in water at 50° C./time (hours): 20” value (20 hours) is on record?
A: 99.64%

Q: What about the “Pentadecapeptide content decrement in water at 50° C./time (hours): 65” value (65 hours) of the same substance?
A: 99.78%

Q: What about the “Pentadecapeptide content decrement in water at 50° C./time (hours): 148” value (148 hours) of the same substance?
A: 99.59%

Q: What about the “Pentadecapeptide content decrement in water at 50° C./time (hours): 388” value (388 hours) of the same substance?
A: 99.44%

Q: And the pH?
A: 7.12

Q: And the “Pentadecapeptide content decrement in water at 50° C./time (hours): start/0” value (start/0 hours)?
A: 100.00%
